Patent US6812034B2, “Fetuin-MGP-mineral complex in serum assayed to determine calcification risk” (The Regents of the University of California, priority 2000, dated 2004)

Assays:
[1] = serum levels of calcium and phosphate in rats treated with vitamin D plus warfarin; assay type: in vivo, rat; conditions: 84 h
[2] = weight, tibia length and serum calcium and phosphate in warfarin-treated rats; assay type: in vivo, rat; conditions: 0.25 mg P/kg/day plus warfarin, 4 weeks

- Ending wt [2]: 300 ± 5 gm
Compound: NCCCC(O)(P(=O)(O)O)P(=O)(O)O [Alendronate, (4-amino-1-hydroxybutylidene)bis-phosphonate]
- Serum Ca ([1]; 0.002 mg P/kg/day): 13.6 ± 0.2 mg/dL
- Serum Ca ([1]; 0.05 mg P/kg/day): 15.5 ± 0.4 mg/dL
